Data: article PMC4201977 (Journal of immunology (Baltimore, Md. : 1950), 2014)

Tests used:
[1] = 2 nmol 13-QY9-6 in 45μg mMP CL097 extract, after 10 minutes, mass spectrometry
[2] = 2 nmol 13-QY9-6 in 45μg mDC CL097 extract, after 10 minutes, mass spectrometry

## CSCC[C@H](NC(=O)[C@@H]1CCCN1C(=O)[C@H](CCCNC(=N)N)NC(=O)[C@H](CC(C)C)NC(=O)[C@@H]1CCCN1C(=O)[C@@H](NC(=O)[C@H](CCC(N)=O)NC(=O)[C@@H]1CCCN1C(=O)[C@@H](NC(=O)[C@@H](NC(=O)[C@@H]1CCCN1C(=O)[C@H](Cc1ccccc1)NC(=O)CNC(=O)[C@@H](NC(=O)[C@H](CCC(=O)O)NC(=O)[C@H](CCC(=O)O)NC(=O)[C@H](CCC(=O)O)NC(=O)[C@H](CCC(=O)O)NC(=O)[C@H](CCC(N)=O)NC(=O)[C@H](C)N)C(C)C)C(C)C)[C@@H](C)O)C(C)C)C(=O)N[C@H](C(=O)N[C@@H](Cc1ccc(O)cc1)C(=O)N[C@@H](CCCCN)C(=O)N[C@@H](C)C(=O)N[C@@H](C)C(=O)N[C@H](C(=O)N[C@@H](CC(=O)O)C(=O)N[C@@H](CC(C)C)C(=O)O)C(C)C)[C@@H](C)O [13-QY9-6]
[1]
  contribution of peptides longer than 26aa to total peak intensity: 85%
[2]
  contribution of peptides longer than 26aa to total peak intensity: 85%

Where two headings read alike, the source gives them in different places.
